In patent US5068358A, “Process for extracting N-methyl-2-pyrrolidone” (Hoechst Aktiengesellschaft, priority 1988, dated 1991):

Experiment: solubility in water
Settings: room temperature

Substance: nonylphenol
- water solubility: less than 1 ppm
- water solubility (in words): virtually water-insoluble
